Reference: PubChem BioAssay (NCI)
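How tested: cells in 96-well plates exposed to compound for 48 hours at five concentrations. TGI: concentration producing complete growth inhibition.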

Assays:
Assay in all cases: NCI tumour cell line growth inhibition, 48 h
786-0 renal = system: 786-0 renal
A498 renal = system: A498 renal
A549 NSCLC = system: A549 NSCLC
ACHN renal = system: ACHN renal
BT-549 breast = system: BT-549 breast
CAKI-1 renal = system: CAKI-1 renal
CCRF-CEM leukemia = system: CCRF-CEM leukemia
COLO 205 colon = system: COLO 205 colon
DU-145 prostate = system: DU-145 prostate
EKVX NSCLC = system: EKVX NSCLC
HCT-116 colon = system: HCT-116 colon
HCT-15 colon = system: HCT-15 colon
HL-60(TB) leukemia = system: HL-60(TB) leukemia
HOP-62 NSCLC = system: HOP-62 NSCLC
HOP-92 NSCLC = system: HOP-92 NSCLC
HS 578T breast = system: HS 578T breast
HT29 colon = system: HT29 colon
IGROV1 ovarian = system: IGROV1 ovarian
K-562 leukemia = system: K-562 leukemia
KM12 colon = system: KM12 colon
LOX IMVI melanoma = system: LOX IMVI melanoma
M14 melanoma = system: M14 melanoma
MALME-3M melanoma = system: MALME-3M melanoma
MCF7 breast = system: MCF7 breast
MDA-MB-231 breast = system: MDA-MB-231 breast
MDA-MB-435 = system: MDA-MB-435
MOLT-4 leukemia = system: MOLT-4 leukemia
NCI-H226 lung = system: NCI-H226 lung
NCI-H23 lung = system: NCI-H23 lung
NCI-H522 lung = system: NCI-H522 lung
NCI/ADR-RES ovarian = system: NCI/ADR-RES ovarian
OVCAR-3 ovarian = system: OVCAR-3 ovarian
OVCAR-4 ovarian = system: OVCAR-4 ovarian
OVCAR-5 ovarian = system: OVCAR-5 ovarian
OVCAR-8 ovarian = system: OVCAR-8 ovarian
PC-3 prostate = system: PC-3 prostate
RPMI-8226 leukemia = system: RPMI-8226 leukemia
SF-268 CNS = system: SF-268 CNS
SF-295 CNS = system: SF-295 CNS
SF-539 CNS = system: SF-539 CNS
SK-MEL-2 melanoma = system: SK-MEL-2 melanoma
SK-MEL-28 melanoma = system: SK-MEL-28 melanoma
SK-MEL-5 melanoma = system: SK-MEL-5 melanoma
SK-OV-3 ovarian = system: SK-OV-3 ovarian
SN12C renal = system: SN12C renal
SNB-19 CNS = system: SNB-19 CNS
SR leukemia = system: SR leukemia
SW-620 colon = system: SW-620 colon
T-47D breast = system: T-47D breast
TK-10 renal = system: TK-10 renal
U251 CNS = system: U251 CNS
UACC-257 melanoma = system: UACC-257 melanoma
UACC-62 melanoma = system: UACC-62 melanoma
UO-31 renal = system: UO-31 renal

Measured: TGI

CCCC(C)(O)C1CC23C=CC1(OC)[C@@H]1Oc4c(OC)ccc5c4[C@@]12CCN(C)[C@@H]3C5 (some centres undefined)
> 100 µM: all assays above
